From PMC6954720, “Discovery of retinoic acid receptor agonists as proliferators of cardiac progenitor cells through a phenotypic screening approach” (Stem Cells Translational Medicine, 2019)

By UniProt entry, the sequences of proteins in these tests, tags left out. Residues count along the entry.
UniProt P10826, 183-417 limits assumed: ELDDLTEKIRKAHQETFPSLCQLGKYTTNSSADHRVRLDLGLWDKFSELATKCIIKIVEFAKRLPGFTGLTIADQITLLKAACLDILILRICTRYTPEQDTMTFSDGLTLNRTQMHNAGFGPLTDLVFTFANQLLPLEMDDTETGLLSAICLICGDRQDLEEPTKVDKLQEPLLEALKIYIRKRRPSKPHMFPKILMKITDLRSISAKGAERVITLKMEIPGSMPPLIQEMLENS

Target: RARB (beta) ligand binding domain (Homo sapiens, UniProt P10826)
Assay: RAR LBD-SRC1-2 coactivator peptide recruitment assay, agonist format, RARB
Format: biochemical
Method: RAR ligand binding domain (LBD)‐SRC1‐2 coactivator peptide (NCOA1_677‐700 biotinylated) recruitment assays were established for the three RAR isotypes RARA (alpha), RARB (beta), and RARG (gamma) to determine relative potencies. […] A total of 0.4 μL of a fixed concentration range of test ligands dissolved in dimethyl sulphoxide (DMSO) was added to assay plates using an acoustic liquid dispenser. […] The raw data were transformed to % effect using the equation: compound % effect = 100 × [(X − min)/(max − min)], where X represents the effect in the presence of test compound and max and min are the effects in presence of the maximum and minimum controls, respectively.
The data were plotted to generate concentration‐response profiles and the concentration‐response curves were fit to the data using the four‐parameter logistic smart fit method in the Genedata Screener software (Genedata, Inc).

## CC1=C(/C=C/C(C)=C/C=C/C(C)=C/C(=O)O)C(C)(C)CCC1 [ATRA, all‐trans retinoic acid]
  maximal effect (% top effect): 104%
